This is an account of results in US6521594B1, “Method and composition for treating thrombosis” (La Jolla Cancer Research Foundation, priority 1990, dated 2003).

Protein sequences, listed by entry. Tags and fused reporters are not part of them. Residues count along the entry.
UniProt P08648, 895-1049 limits assumed: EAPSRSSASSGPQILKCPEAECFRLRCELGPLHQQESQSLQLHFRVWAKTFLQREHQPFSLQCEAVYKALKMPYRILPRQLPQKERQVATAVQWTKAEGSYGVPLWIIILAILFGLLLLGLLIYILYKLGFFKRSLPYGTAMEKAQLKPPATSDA
UniProt P08648, 42-894 limits assumed: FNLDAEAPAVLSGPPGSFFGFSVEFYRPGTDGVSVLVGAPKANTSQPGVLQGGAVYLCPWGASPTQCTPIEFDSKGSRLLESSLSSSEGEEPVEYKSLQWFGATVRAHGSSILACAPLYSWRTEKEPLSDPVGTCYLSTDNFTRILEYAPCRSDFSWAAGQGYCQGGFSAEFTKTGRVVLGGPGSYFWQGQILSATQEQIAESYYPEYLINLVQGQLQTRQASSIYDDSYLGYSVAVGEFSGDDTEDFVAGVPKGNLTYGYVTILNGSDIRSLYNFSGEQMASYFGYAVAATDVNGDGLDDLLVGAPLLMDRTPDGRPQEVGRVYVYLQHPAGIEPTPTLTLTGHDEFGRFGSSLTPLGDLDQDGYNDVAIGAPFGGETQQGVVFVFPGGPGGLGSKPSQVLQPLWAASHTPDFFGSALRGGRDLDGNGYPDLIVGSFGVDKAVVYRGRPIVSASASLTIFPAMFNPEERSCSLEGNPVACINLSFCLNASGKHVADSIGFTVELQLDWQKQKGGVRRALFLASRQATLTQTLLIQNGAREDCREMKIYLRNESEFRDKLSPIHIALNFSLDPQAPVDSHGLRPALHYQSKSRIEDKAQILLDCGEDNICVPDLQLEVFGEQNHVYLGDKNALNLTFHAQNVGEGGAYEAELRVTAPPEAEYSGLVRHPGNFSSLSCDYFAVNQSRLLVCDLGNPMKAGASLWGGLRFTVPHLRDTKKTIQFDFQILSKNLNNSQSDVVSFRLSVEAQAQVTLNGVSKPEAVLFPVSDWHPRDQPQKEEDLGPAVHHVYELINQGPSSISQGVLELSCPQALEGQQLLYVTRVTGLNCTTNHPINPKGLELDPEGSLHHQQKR
UniProt P05106, 27-788 limits assumed: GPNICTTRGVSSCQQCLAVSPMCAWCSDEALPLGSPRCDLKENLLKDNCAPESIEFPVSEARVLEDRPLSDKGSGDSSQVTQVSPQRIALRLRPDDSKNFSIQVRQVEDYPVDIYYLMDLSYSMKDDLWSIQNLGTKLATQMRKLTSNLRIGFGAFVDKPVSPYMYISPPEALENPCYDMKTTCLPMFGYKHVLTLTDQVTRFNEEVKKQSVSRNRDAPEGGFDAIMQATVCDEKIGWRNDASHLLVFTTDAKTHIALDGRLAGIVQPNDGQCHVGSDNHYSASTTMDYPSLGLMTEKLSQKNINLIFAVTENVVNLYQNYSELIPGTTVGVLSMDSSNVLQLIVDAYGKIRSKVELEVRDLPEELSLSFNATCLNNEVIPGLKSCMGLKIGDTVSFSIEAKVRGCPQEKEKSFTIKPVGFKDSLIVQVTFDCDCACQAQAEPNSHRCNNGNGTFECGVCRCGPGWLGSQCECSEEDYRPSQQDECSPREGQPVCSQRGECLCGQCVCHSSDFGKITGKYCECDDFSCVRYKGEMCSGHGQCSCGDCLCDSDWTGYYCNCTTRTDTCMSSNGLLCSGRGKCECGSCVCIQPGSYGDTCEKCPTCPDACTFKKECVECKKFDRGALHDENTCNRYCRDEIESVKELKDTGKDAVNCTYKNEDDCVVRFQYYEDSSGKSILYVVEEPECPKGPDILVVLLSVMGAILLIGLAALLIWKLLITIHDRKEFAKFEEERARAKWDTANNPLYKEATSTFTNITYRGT
UniProt P08514, 32-887 limits assumed: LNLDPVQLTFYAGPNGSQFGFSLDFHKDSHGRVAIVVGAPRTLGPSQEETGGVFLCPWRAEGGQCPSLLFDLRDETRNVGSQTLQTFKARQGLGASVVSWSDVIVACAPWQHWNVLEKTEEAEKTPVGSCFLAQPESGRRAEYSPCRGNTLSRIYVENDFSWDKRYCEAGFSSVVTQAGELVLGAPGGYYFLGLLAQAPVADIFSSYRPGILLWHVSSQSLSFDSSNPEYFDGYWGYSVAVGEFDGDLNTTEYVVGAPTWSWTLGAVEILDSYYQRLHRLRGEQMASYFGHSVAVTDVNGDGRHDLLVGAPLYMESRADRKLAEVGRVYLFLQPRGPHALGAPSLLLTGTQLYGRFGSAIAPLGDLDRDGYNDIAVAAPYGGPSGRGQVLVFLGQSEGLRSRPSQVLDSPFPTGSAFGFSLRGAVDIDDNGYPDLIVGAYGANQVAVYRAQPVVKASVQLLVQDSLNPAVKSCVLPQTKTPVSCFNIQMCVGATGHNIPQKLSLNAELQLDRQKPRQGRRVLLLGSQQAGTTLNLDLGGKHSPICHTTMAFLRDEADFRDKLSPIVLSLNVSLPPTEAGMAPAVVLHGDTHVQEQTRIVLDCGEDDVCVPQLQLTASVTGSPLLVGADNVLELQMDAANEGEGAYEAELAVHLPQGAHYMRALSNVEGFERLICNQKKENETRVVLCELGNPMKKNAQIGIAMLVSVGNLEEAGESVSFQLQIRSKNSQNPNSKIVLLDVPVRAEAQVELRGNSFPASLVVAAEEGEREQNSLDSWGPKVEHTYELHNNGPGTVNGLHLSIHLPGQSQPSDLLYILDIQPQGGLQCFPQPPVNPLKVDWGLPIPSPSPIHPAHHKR
UniProt P08514, 891-1039 limits assumed: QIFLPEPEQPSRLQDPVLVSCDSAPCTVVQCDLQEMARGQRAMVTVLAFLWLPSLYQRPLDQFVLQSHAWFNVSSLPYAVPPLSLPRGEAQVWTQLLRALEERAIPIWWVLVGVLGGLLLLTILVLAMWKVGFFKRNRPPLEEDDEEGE

For orientation: IC50 means the midpoint of a concentration-inhibition curve. A higher IC50 goes with a need for much substance.

Read-outs that look alike come from different tables or passages of the source.

The target of assay [1] is T1, α5β1 (Homo sapiens, UniProt P05556+P08648).
T1 construct: Fibronectin receptor (Fn-R) was similarly purified from (100 mM) octyl glucoside-extracted human placenta; from tissue; host or cells: human placenta
The assay can be described thus: α5β1 ELISA IC50 (μM). An excerpt: (§1) Table printed on a drawing sheet, FIG. 19
(§2) Title: Modifications of R(Pmc)GHRGD(Y-OMe)RCR
(§3) Head of the field: α5β1 ELISA IC50 (μM)
(§4) The patent's description of the figure: FIG. 19 (SEQ ID NOS. 1, 147-149, 76 and 68, respectively) is a Table summarizing the effect of substitutions in position −2 (as defined, infra) of peptide R(Pmc)GHRGD(Y-OMe)RCR (SEQ ID NO. 1). […]
(§5) First copying reader's note: The part of each sequence from (Pmc) through C is underlined on the sheet, and the footnotes a,b cited in the head are not printed on it.
(§6) Where the first naming reader finds the target: head: α5β1 ELISA IC50 (μM)

The target of assay [2] is T2, αIIbβ3 (Homo sapiens, UniProt P05106+P08514).
T2 construct: Platelet glycoprotein IIb/IIIa was purified from outdated human platelets; from tissue; host or cells: outdated human platelets
The assay can be described thus: αIIbβ3 ELISA IC50 (μM).
From the text: as §1, §2
(§7) Head of the field: αIIbβ3 ELISA IC50 (μM)
as §4, §5
(§8) Where the first naming reader finds the target: head: αIIbβ3 ELISA IC50 (μM)
(In an ELISA, binding on a coated surface is turned into a signal by an enzyme label.)

Assay [3] addresses T2, αIIbβ3. The assay can be described thus: αIIbβ3 ELISA IC50 (μM).
From the text: (§9) Table printed on a drawing sheet, FIG. 20
as §2, §7
(§10) The patent's description of the figure: FIG. 20 (SEQ ID NOS. 1 and 150-153, respectively) is a Table summarizing the effect of modifications at position −1 (as defined, infra) in peptide R(Pmc)GHRGD(Y-OMe)RCR. […]
(§11) First copying reader's note: Footnote marks a, b and c are printed but their texts are not on the sheet; the underlined part of each sequence (Pmc to C) marks the cyclic portion, and D in (DH) and (DY) is a small capital for the D-amino acid.
as §8
This is another data set of the same source.

For assay [4], the target named is T1, α5β1. The assay can be described thus: α5β1 ELISA IC50 (μM).
From the text: as §9, §2, §3, §10, §11, §6
The source holds these as a separate data set.

Assay [5] addresses T2, αIIbβ3. The assay can be described thus: αIIbβ3 ELISA IC50 (μM).
From the text: Table printed on a drawing sheet, FIG. 22
Title: Modifications of Ac-CNPRGD(Y-OMe)RC-NH2
as §7
The patent's description of the figure: FIG. 22 (SEQ ID NOS. 3, 160-163, 2 and 164, respectively) is a Table showing the effect of modifying Ac-CNPRGD(Y—Me)RC-NH2 at position −3 (as defined, infra). […]
First copying reader's note: Underlining in the printed sequences marks the cyclic part; the footnote for the raised a at 'Peptide' is not printed on the sheet, and the D in D-Pen is printed as a small capital.
as §8
This is another data set of the same source.

In assay [1], R(Pmc)IHRGD(Y-OMe)RCR [compound 20] showed an IC50 of 6400 nM. In other words, the single-digit micromolar range.

As to R(Pmc)NHRGD(Y-OMe)RCR [compound 21], the IC50 in assay [2] came out at 90 nM.

R(Pmc)DHRGD(Y-OMe)RCR [compound 18] displayed an IC50 in assay [1] of 9200 nM.

R(Pmc)G(DY)RGD(Y-OMe)RCR [compound 25] had an IC50 in assay [3] of 10 nM.

In turn, R(Pmc)G(DH)RGD(Y-OMe)RCR [compound 23] displayed an IC50 in assay [4] of 6800 nM.

Substance “Ac-(Pmc)NPRGD(Y-OMe)RC-NH2 [compound 37]” returned a concentration for half-maximal inhibition (IC50) in assay [5] of 16 nM.

Consider R(Pmc)SHRGD(Y-OMe)RCR [compound 19], for which half-maximal inhibition in assay [2] (IC50) required 120 nM.
